Results on four molecules are retold here after US12582645B2, “Chemokine CXCR4 receptor modulators and uses related thereto” (Emory University, priority 2017, dated 2026).

Sequences of proteins named here, by UniProt entry; tags and fusion partners are left off.
UniProt P61073, whole entry: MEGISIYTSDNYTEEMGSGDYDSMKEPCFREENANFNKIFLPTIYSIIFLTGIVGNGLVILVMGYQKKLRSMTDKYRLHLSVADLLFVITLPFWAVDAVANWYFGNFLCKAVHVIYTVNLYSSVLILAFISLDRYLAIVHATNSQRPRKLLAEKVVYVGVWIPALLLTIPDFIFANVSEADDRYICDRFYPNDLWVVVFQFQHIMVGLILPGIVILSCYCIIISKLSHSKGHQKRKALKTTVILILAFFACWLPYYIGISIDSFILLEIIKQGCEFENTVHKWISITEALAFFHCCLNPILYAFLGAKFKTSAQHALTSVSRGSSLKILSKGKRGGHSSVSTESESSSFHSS

Structures are written as SMILES.

For this assay, the target named is T1, CXCR4 (Homo sapiens, UniProt P61073).
T1 construct: Human T lymphoblast cells (CCRF-CEM) expressing endogenous CXCR4 receptors; endogenous in cells; host or cells: CCRF-CEM (human T lymphoblast cells)
Description: CXCR4-CEM calcium flux assay, antagonist mode (inhibition of SDF-1α-induced calcium flux). The assay is classed as cell-based. As to conditions: CCRF-CEM cells expressing endogenous CXCR4, stimulated with 4 nM SDF-1α, read-out: CXCR4 Ca^2+ Flux IC50. How it is done: CXCR4-CEM Calcium Flux Assays
Exemplary compounds of the invention were tested for their ability to induce or inhibit calcium flux in CCRF-CEM cells, a human cell line that endogenously expresses CXCR4. Activation of CXCR4 stimulates G protein signaling which, in CCRF-CEM cells, causes a series of downstream events that leads to the release of intracellular calcium stores, or calcium flux. Calcium ion concentrations can be easily measured using a wide variety of […] calcium indicators and, as a result, calcium flux assays are commonly employed methods for measuring G protein-coupled receptor (GPCR) activity. Because the therapeutic potential of CXCR4 antagonists as anti-cancer agents likely relies on their ability to inhibit CXCR4-mediated G protein signaling, this assay was utilized as a first-pass measure of inhibitor potency.
The cells were then equilibrated to room temperature for 30 minutes before assay. […] For “antagonist mode” assessment, the cells are subsequently incubated for 25 minutes at room temperature. SDF-1α (R&D System Cat #350-NS/CF) was then added at a final concentration of 4 nM to stimulate the cells. Inhibition of SDF-1α-induced calcium flux was monitored by FDSS6000 for 90 seconds.
After correcting for background, EC50 values were determined. […] Inhibition data for the test compound over a range of concentrations was plotted as percentage inhibition of the test compound as compared to an internal control compound.
(Calcium flux is commonly read through the fluorescence of an indicator in the cells.)
The IC50 is the midpoint of a concentration-inhibition curve. With `NCc1ccc(CN(C[C@H]2Cc3ccccc3CN2)[C@H]2CCCc3cccnc32)cc1` [EMU093, (S)—N-(4-(aminomethyl)benzyl)-N—(((R)-1,2,3,4-tetrahydroisoquinolin-3-yl)methyl)-5,6,7,8-tetrahydroquinolin-8-amine], the half-inhibitory concentration (IC50) came to 115 nM. Take `c1cncc(CNCc2ccc(CN(C[C@H]3Cc4ccccc4CN3)[C@H]3CCCc4cccnc43)cc2)c1` [EMU219, (S)—N-(4-(((pyridin-3-ylmethyl)amino)methyl)benzyl)-N—(((R)-1,2,3,4-tetrahydroisoquinolin-3-yl)methyl)-5,6,7,8-tetrahydroquinolin-8-amine]: the half-inhibitory concentration (IC50) was 60.5 nM.

For `c1ccc2c(c1)CN[C@@H](CN(Cc1ccc(CNCC3CCOCC3)cc1)[C@H]1CCCc3cccnc31)C2` [EMU216, (S)—N-(4-((((tetrahydro-2H-pyran-4-yl)methyl)amino)methyl)benzyl)-N—(((R)-1,2,3,4-tetrahydroisoquinolin-3-yl)methyl)-5,6,7,8-tetrahydroquinolin-8-amine], the IC50 turned out to be 183 nM. To `C(=C\CN(C[C@H]1Cc2ccccc2CN1)[C@H]1CCCc2cccnc21)/CNCc1ccncc1` [EMU221, (E)-N1-(pyridin-4-ylmethyl)-N4-(((R)-1,2,3,4-tetrahydroisoquinolin-3-yl)methyl)-N4-((S)-5,6,7,8-tetrahydroquinolin-8-yl)but-2-ene-1,4-diamine] belongs 40.7 nM.
